Test results reported in patent publication US20070004803A1, “Compounds and methods for use in treating neoplasia and cancer based upon inhibitors of isoprenylcysteine methyltransferase” (Purdue Research Foundation, priority 2003, published 2007).

Target: T1, Saccharomyces cerevisiae Icmt (Saccharomyces cerevisiae, UniProt P32584)
T1 construct: A 734 bp EagI-SacII fragment, which contained the gene STE14, was amplified from pSM187; made in house; host or cells: Saccharomyces cerevisiae strain CH2704 (plasmid pCHH10m3N-STE14 in the Ste14p-lacking strain SM1188); membrane fraction
T1 sequence (P32584 1-239): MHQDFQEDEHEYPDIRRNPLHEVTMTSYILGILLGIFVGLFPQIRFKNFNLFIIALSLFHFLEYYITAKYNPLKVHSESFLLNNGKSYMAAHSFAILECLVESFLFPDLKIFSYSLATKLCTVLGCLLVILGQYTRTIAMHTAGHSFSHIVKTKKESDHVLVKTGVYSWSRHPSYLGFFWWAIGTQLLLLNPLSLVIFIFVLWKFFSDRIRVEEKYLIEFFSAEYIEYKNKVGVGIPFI
Experiment: In vitro vapor diffusion methyltransferase assay, AFC analogues as substrates
Assay type: biochemical
Details: Relative velocity (compared to AFC) at 125 μM; substrate ability
Method: Previous studies in this laboratory have focused on the isoprenoid substrate specificity of FTase. We have discovered analogues that are effective alternative substrates, and compounds that are potent inhibitors. […] In the initial study, six isoprenoid-modified analogues (2-7, Chart 1, below) of the minimal Icmt substrate AFC 1 were prepared and evaluated as substrates and as inhibitors of the enzyme. These isoprenoid moieties were chosen in part because the corresponding FPP analogues are alternative substrates for FTase, and can thus be readily incorporated into peptides and proteins. The assays were performed using overexpressed, reconstituted recombinant Saccharomyces cerevisiae Icmt.
Isolation of Membrane Fraction from Yeast Cells—Mid-log phase yeast cells (2.0-3.0 OD600/mL), grown in SC-URA, media, were harvested by centrifugation at 3500×g for 10 minutes at 4° C., washed with 10 mM NaN3, and resuspended in lysis buffer (0.3 M sorbitol, 10 mM Tris-HCl pH 7.5, 0.1 M NaCl, 5 mM MgCl2, 1% aprotinin, 10 μg/mL leupeptin, 10 μg/in L pepstatin A, 10 μg/mL chymostatin, 10 μg/mL bestatin, 1 mM dithiothreitol, and 2 mM AEBSF) to a final concentration of 800 OD600/mL. After a 15 min incubation on ice, the cells were frozen and thawed twice in liquid N2. […] Protein samples were analyzed by immunoblot analysis and in vitro vapor diffusion methyltransferase assay as described elsewhere. […]

CC(=O)N[C@@H](CSC/C=C(\C)CCc1ccc(-c2ccccc2)cc1)C(=O)O [Compound 7, N-Acetyl-S-(3-methyl-5-(4-phenyl)phenylpent-2E-en-1-yl)-L-cysteine]
Icmt krel: 10.7
